Experimental data as given in patent US20140011799A1 (Bristol-Myers Squibb Company, priority 2012, published 2014).

Target: T1, Endothelial lipase (EL) (Homo sapiens, UniProt Q9Y5X9)
T1 construct: HT-1080 cells that were transformed using RAGE technology (Athersys) to overexpress endogenous EL; endogenous in cells; conditioned medium used
T1 sequence (Q9Y5X9 21-500): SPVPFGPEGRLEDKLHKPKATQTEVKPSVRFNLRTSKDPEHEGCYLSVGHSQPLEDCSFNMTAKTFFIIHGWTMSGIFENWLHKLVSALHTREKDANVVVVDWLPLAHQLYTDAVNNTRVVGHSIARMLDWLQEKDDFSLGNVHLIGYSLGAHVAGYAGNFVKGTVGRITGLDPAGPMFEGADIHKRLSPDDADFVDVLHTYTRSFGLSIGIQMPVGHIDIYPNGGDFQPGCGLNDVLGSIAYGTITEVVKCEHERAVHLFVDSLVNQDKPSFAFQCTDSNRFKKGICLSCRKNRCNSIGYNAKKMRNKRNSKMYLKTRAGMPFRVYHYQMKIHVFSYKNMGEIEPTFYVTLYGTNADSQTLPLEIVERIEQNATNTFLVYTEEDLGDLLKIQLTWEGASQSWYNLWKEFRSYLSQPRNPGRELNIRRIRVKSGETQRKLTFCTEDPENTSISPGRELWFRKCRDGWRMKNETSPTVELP
Assay: Endothelial lipase (EL) enzymatic assay, fluorescent substrate A10070 in DMPG vesicles
Assay type: biochemical
Details: EL from conditioned media of HT-1080 cells; compound preincubated 30 min at 37° C
Procedure: Endothelial lipase (EL) and hepatic lipase (HL) activities were measured using a fluorescent substrate, A10070, (Invitrogen, CA) doped into an artificial vesicle containing DMPG (Avanti Polar Lipids) as the excipient. Vesicles were prepared by combining 571 μL of 29 mM DMPG in a 1:1 mixture of MeOH and CHCl3 with 2000 μL of 1 mM A10070 in a 1:1 mixture of MeOH and CHCl3. The mixture was dried under nitrogen in multiple vials then resuspended in 20 mL total volume of 50 mM HEPES pH 8.0 buffer containing 50 mM NaCl and 0.2 mM EDTA. The sample was allowed to sit at room temperature for 15 min and then was sonicated 3×4 mins on ice with a Branson Sonicator using duty cycle 1. This preparation provides vesicles with a mole fraction of 0.11 for the FRET substrate.
The enzymatic assay was measured using 384-well white Optiplates. Each well contained 20 μL of assay buffer (50 mM HEPES pH 8.0, 50 mM NaCl and 1 mM CaCl2) and 0.25 μL of a DMSO solution containing a compound of interest. EL or HL (10 μL) was added and allowed to incubate with the compound for 30 min at 37° C. […] The reaction rates were measured on a Gemini plate reader with an excitation wavelength of 490 nm and an emission wavelength of 530 nm. Readings were taken over a period of 60 minutes, and the slope between 300 and 900 secs of the readout was used to calculate the rate of the reaction.

Row | SMILES | IC50 [nM]
1 | CC(c1nnc(CNS(N)(=O)=O)o1)(c1nc2ccc(-c3ccccc3)cc2s1)S(=O)(=O)Cc1ccccc1 (single isomer, unassigned) [Reference 2, Isomer A, N-((5-(1-(Benzylsulfonyl)-1-(6-phenyl-1,3-benzothiazol-2-yl)ethyl)-1,3,4-oxadiazol-2-yl)methyl)sulfamide, reference compound] | > 25000
2 | CC(c1nnc(CNS(N)(=O)=O)o1)(c1nc2ccc(-c3ccccc3)cc2s1)S(=O)(=O)Cc1ccccc1 (single isomer, unassigned) [Reference 2, Isomer B, N-((5-(1-(Benzylsulfonyl)-1-(6-phenyl-1,3-benzothiazol-2-yl)ethyl)-1,3,4-oxadiazol-2-yl)methyl)sulfamide, reference compound] | 713
